The target in this assay is T1, A3AR (Mus musculus, UniProt Q61618).
T1 construct: expressed in transfected cells
T1 sequence (Q61618 1-319): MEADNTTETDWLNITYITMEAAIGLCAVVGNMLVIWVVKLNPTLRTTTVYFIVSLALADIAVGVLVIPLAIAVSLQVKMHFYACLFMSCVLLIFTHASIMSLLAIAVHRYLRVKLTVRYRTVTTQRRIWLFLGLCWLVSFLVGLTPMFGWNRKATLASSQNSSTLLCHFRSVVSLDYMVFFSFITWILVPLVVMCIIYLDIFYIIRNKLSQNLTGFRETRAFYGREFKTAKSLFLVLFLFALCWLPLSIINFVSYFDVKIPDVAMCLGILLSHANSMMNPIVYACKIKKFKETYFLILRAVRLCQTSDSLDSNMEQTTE
In words: Radioligand binding, membranes of HEK293 cells stably expressing mA3AR. The conditions noted are these: species m; n 3-4; read-out: affinity (KV nM) A3.

Take `O[C@@H]1[C@H](O)[C@@H]2C[C@@H]2[C@H]1n1cnc2c(NCCc3ccccc3)nc(C#Cc3ccccc3)nc21` [Compound 14]: the Ki was 480 ± 90 nM.

The record behind these values is patent publication US20150087613A1, “Inhibition of Opioid Antinociceptive Tolerance and Withdrawal in Nociceptive Pain Therapy” (Saint Louis University, priority 2013, published 2015).
